For this experiment, the species on record is Homo sapiens. The experiment in a line: Selectivity ratio of IC50 for human recombinant B-raf (416 to end residue) to IC50 for human recombinant full length ATR.

Take `C[C@@H]1COCCN1c1nc(-c2cccc3[nH]ccc23)nc2ccc(-c3ccnn3C)cc12`: the Ratio IC50 worked out at 118.

Values taken from ChEMBL document CHEMBL5154749 (Eur J Med Chem, 2022).
